Data taken from patent US20060269529A1, “Modified t lymphocytes and uses therefor” (priority 2002, published 2006).

Columns and labels:
[1] = system: CT26 murine colon adenocarcinomas; assay: Adoptive transfer, subcutaneous CT26 tumors in BALB/c mice; format: in vivo; details: i.v. CTLs days 7, 11, 14, 17, daily IL-2, day 19 post implantation, FIG. 4A
Protocol: (§1) On day 0, tumor cells were implanted into the subcutaneous space on the right flank of recipient mice. On the days of treatment, CTLs (4 to 7 post-transduction) were harvested, washed, resuspended in cold PBS, and injected in a volume of 300 μl into the retro-orbital venous plexus. Mice were treated daily with 25,000 units of human recombinant interleukin-2 (IL-2) (Chiron) in 0.5 ml of PBS via intraperitoneal injection. TNP-470 (TAP Holdings Inc., Deerfield, Ill.) (30 mg/kg) was injected subcutaneously (into a site remote from the tumor) every other day in 0.3 ml PBS starting with the first day of CTL therapy. Starting volumes of tumors ranged from 40 to 80 mm^3. All mice were sacrificed when control mice reached a mean tumor volume of 2,000 mm^3 or had extensive tumor ulceration.

B16.F10 murine melanomas = assay: Adoptive transfer, subcutaneous B16.F10 tumors in C57BL/6 mice; format: in vivo; details: i.v. CTLs days 7, 11, 14, 17, daily IL-2, day 19 post implantation, FIG. 4B
Protocol: as §1

Substance: IL-2: human recombinant interleukin-2 (Chiron), given daily intraperitoneally
- inhibition of CT26 tumor growth (from T/C ratio) [1]: no independent anti-tumor effect
- inhibition of B16.F10 tumor growth (from T/C ratio) (B16.F10 murine melanomas): essential to achieve significant therapeutic effect
